# Antibody variant affinities, Ab-14 heavy chain, assay 1

The measurements come from Engelhart et al. 2022 (doi:10.1038/s41597-022-01779-4) through the FLAb antibody collection.

Binding partner: SARS-CoV-2 spike HR2 peptide, sequence PDVDLGDISGINAS.

Parent scFv Ab-14: VH joined to VL by a (GGGGS)3 linker. Changes lie in the heavy chain CDRs alone.
VH: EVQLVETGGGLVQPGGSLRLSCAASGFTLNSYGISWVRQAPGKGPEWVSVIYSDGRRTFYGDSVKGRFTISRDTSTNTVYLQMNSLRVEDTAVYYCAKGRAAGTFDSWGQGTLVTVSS
VL: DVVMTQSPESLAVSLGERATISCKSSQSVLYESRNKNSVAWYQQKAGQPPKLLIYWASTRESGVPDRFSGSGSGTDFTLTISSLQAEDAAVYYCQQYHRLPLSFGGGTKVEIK

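Phage display of a naive human antibody library on the peptide gave the parent. In library AAYL49, one, two or three CDR residues were substituted; doubles and triples were drawn at random. In AlphaSeq, yeast of one mating type display the scFv and yeast of the other type display the target. The frequency of each diploid, read from paired DNA barcodes, reflects how well the two displayed proteins bind. The ratio of observed to expected reads was calibrated, replicate by replicate, on BCL2-family standards whose Kd was known from biolayer interferometry. The assay was run in three technical replicates.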

Substitutions are numbered in sequence along the VH above, starting at 1 (not Kabat).
Values are log10 of the apparent Kd in nM; lower means stronger binding.
Replicates are averaged; those with no signal do not enter the mean.
An entry "not detected" has no value in the source: the pair was not observed among the diploids in any replicate. This suggests poor binding but is not conclusive.
Order: sorted from the lowest average up, undetected variants last.
Empty control strains, which show no peptide, gave a signal in 15% of pairings with library AAYL49; the median was 4.06 and 95% of these signals were weaker than 2.83. No background was subtracted.
In this assay the parent's reference entry averaged 0.65; its copy inside this library read 4.11 (one replicate of three).

changes	log10 Kd (nM), mean	seen in
N30R A102V T104L	0.60	3 of 3
R56D G61I	0.93	3 of 3
S63D G99D	1.42	3 of 3
S63M A102P S107F	1.78	3 of 3
S31H D62H A101F	2.03	3 of 3
T58C D62N R100N	2.16	3 of 3
S31Q Y52A	2.39	3 of 3
S31C G61S D62H	2.53	3 of 3
Y32I Y60Q S63K	2.86	1 of 3
G61E V64A G103L	3.09	3 of 3
L29V I51V S107E	3.27	2 of 3
G26W V50S A101T	3.69	1 of 3
F27A T28Y S63A	3.70	3 of 3
L29F D54E K65W	3.71	2 of 3
F27D S31D D106S	3.72	3 of 3
T28I S35Y G61E	3.76	1 of 3
T28S S35M Y52D	3.80	1 of 3
S31L I34C A101E	4.05	2 of 3
S31A I34Y T104W	4.09	2 of 3
S53K D54Q T58K	4.19	3 of 3
Y32H S63A G103N	4.37	2 of 3
F27P R57S Y60C	4.49	3 of 3
T28G I34T V50K	4.72	1 of 3
F27E L29V D62I	4.90	3 of 3
T28Y I34D	4.96	1 of 3
G33N D62W V64Y	5.12	3 of 3
I34F A102M G103E	5.31	1 of 3
I34C V50H R56W	5.44	1 of 3
S53H V64H G99N	not detected	0 of 3
F27I L29E N30D	not detected	0 of 3
S35Y A101H	not detected	0 of 3
S31K Y32K V50Q	not detected	0 of 3
G61R V64W A101E	not detected	0 of 3
G26S T58H D106S	not detected	0 of 3
N30T S35C G61Y	not detected	0 of 3
Y52N T104R F105H	not detected	0 of 3
S31L S53M D106M	not detected	0 of 3
Y52C A101Q S107G	not detected	0 of 3
T58R G61M T104G	not detected	0 of 3
G55P V64G	not detected	0 of 3
Y52E F59N R100P	not detected	0 of 3
V50W S53M G103T	not detected	0 of 3
I34Y G55C D106V	not detected	0 of 3
V50C Y52E D62N	not detected	0 of 3
S35F Y52F T58D	not detected	0 of 3
G33F A101D A102I	not detected	0 of 3
S31M K65M G99K	not detected	0 of 3
S35G G55E G103H	not detected	0 of 3
Y32E R56V A102C	not detected	0 of 3
Y32G Y60E A102F	not detected	0 of 3
N30I S53E R100C	not detected	0 of 3
N30M I51S D62C	not detected	0 of 3
G61D G99Y D106V	not detected	0 of 3
L29C I34R	not detected	0 of 3
F27I V50Y G103P	not detected	0 of 3
F27V Y52M S107F	not detected	0 of 3
L29G Y60C G61S	not detected	0 of 3
G33P S35P T104N	not detected	0 of 3
I51Q Y60A S63A	not detected	0 of 3

The first 3 entries again:

{"changes": "N30R A102V T104L", "log10 Kd (nM), mean": "0.60", "seen in": "3 of 3"}
{"changes": "R56D G61I", "log10 Kd (nM), mean": "0.93", "seen in": "3 of 3"}
{"changes": "S63D G99D", "log10 Kd (nM), mean": "1.42", "seen in": "3 of 3"}